## scFv variants of Ab-95 (light chain) against a SARS-CoV-2 spike peptide

Source: Engelhart et al. 2022 (doi:10.1038/s41597-022-01779-4), MIT Lincoln Laboratory and A-Alpha Bio; data file from the FLAb repository.

The target is the same throughout: PDVDLGDISGINAS, from the HR2 region of SARS-CoV-2 spike.

Parent scFv Ab-95: VH joined to VL by the linker GGGGSGGGGSGGGGS. Changes lie in the light chain CDRs alone.
VH: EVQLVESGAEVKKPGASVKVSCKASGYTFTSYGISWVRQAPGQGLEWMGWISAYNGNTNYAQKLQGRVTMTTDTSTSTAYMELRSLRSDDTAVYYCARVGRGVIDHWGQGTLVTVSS
VL: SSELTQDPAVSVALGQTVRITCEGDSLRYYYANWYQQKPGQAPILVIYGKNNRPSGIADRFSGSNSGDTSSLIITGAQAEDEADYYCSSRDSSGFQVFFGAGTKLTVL

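AAYL52 was designed without a model: most single CDR substitutions and a random sample of double and triple ones. Affinity was read by AlphaSeq, a pooled yeast mating assay with surface-displayed partners. After mating in shaken culture at 30 °C for 16 h, diploids were selected and their barcode pairs sequenced. Scores were corrected for input abundance and mapped to Kd with protein pairs of known affinity run in the same pool. The assay was run in three technical replicates.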

Substitutions are numbered in sequence along the VL above, starting at 1 (not Kabat).
All variants listed here change F98 of the VL, counted from its first residue.
The Kd shown is the geometric mean over detected replicates; a lower Kd is a better binder.
"nd" marks a missing value. The strain was present, yet no cells mated with the target were sequenced in any replicate, which points to weak or no binding.
Empty control strains, which show no peptide, gave a signal in 28% of pairings with library AAYL52; the median was 8.2 µM and 95% of these signals were weaker than 800 nM. No background was subtracted. The control count says in how many pairings with the empty strains this scFv gave a signal.
For reference, the parent read 200 nM as the reference entry and 180 nM as a member of this library.

changes	Kd (apparent)	replicates with signal	empty controls
L27T/N52P/F98G	nd	0 of 3	2 of 9
S55F/V97Y/F98A	140 nM	3 of 3	1 of 9
Y31N/S55P/F98G	94 nM	3 of 3	4 of 9
N51F/S92A/F98R	10 µM	3 of 3	7 of 9
Y31F/G49S/F98Q	5.1 µM	1 of 3	0 of 9
S26I/S89L/F98T	nd	0 of 3	0 of 9
G24L/D25R/F98G	18 µM	3 of 3	5 of 9
N52L/S92W/F98W	6.5 µM	2 of 3	2 of 9
E23K/N33L/F98L	17 µM	3 of 3	4 of 9
D91R/S92Y/F98T	nd	0 of 3	0 of 9
L27F/K50G/F98C	1.4 µM	3 of 3	4 of 9
D25C/Y30H/F98T	210 nM	3 of 3	0 of 9
G94C/V97L/F98R	63 µM	2 of 3	5 of 9
S55Y/F98K	820 nM	3 of 3	0 of 9
N33W/R53N/F98Q	2.4 µM	1 of 3	3 of 9
R28Q/Y31R/F98K	1.8 µM	3 of 3	1 of 9
G24F/A32L/F98M	2.3 µM	2 of 3	2 of 9
Y30R/S93V/F98A	220 nM	3 of 3	4 of 9
R28I/F98W	660 nM	3 of 3	0 of 9
D91I/F95Y/F98V	620 nM	3 of 3	6 of 9
L27N/F95D/F98E	1.7 µM	2 of 3	2 of 9
G49L/P54S/F98I	7.4 µM	1 of 3	4 of 9
A32I/P54R/F98E	nd	0 of 3	2 of 9
K50A/S55C/F98G	1.1 µM	3 of 3	2 of 9
D25M/S26D/F98N	25 µM	3 of 3	1 of 9
S93Q/F98Y	1.4 µM	3 of 3	5 of 9
L27F/N33E/F98I	12 µM	2 of 3	5 of 9
R53L/F98I	430 nM	3 of 3	3 of 9
Y31D/S92N/F98T	6.4 nM	3 of 3	1 of 9
G49C/F98S	nd	0 of 3	4 of 9
E23F/F98K	nd	0 of 3	0 of 9
N33V/P54T/F98P	4.6 µM	2 of 3	2 of 9
G49Y/N52T/F98R	210 µM	1 of 3	1 of 9
E23W/L27Y/F98T	nd	0 of 3	2 of 9
R53K/F98Y	590 nM	3 of 3	4 of 9
G49M/F98M	nd	0 of 3	3 of 9
R28P/S89P/F98E	nd	0 of 3	0 of 9
G49R/S55T/F98V	3.6 µM	1 of 3	5 of 9
A32S/K50V/F98D	8.5 µM	2 of 3	1 of 9
G24R/V97C/F98H	nd	0 of 3	1 of 9
K50F/R90T/F98R	11 µM	2 of 3	4 of 9
L27M/Y29Q/F98W	2.2 µM	3 of 3	3 of 9
G94C/V97S/F98L	1.9 µM	1 of 3	4 of 9
Y31I/G94I/F98S	1.4 µM	2 of 3	6 of 9
Y29I/N33I/F98S	nd	0 of 3	1 of 9
D91F/S92M/F98K	260 µM	1 of 3	3 of 9
S89N/F98P	3.8 µM	2 of 3	0 of 9
L27I/S88C/F98A	nd	0 of 3	1 of 9
R28E/S93G/F98W	870 nM	3 of 3	2 of 9
A32F/G94W/F98E	nd	0 of 3	1 of 9
D25M/G94S/F98A	5.8 µM	2 of 3	3 of 9
N33I/F95K/F98Q	270 µM	1 of 3	1 of 9
N52C/S92D/F98L	6.5 µM	1 of 3	0 of 9
D25T/S93L/F98W	58 nM	3 of 3	3 of 9
S26L/R90P/F98H	nd	0 of 3	0 of 9
K50R/N51K/F98M	26 µM	2 of 3	4 of 9
G94N/F98G	nd	0 of 3	1 of 9
L27W/G49W/F98C	16 µM	1 of 3	5 of 9
S55L/S93K/F98D	1.1 µM	3 of 3	4 of 9
G24E/N51T/F98L	4.9 µM	1 of 3	1 of 9
N52G/F95Q/F98H	590 nM	1 of 3	0 of 9
G49M/R90W/F98Q	48 µM	3 of 3	2 of 9
S92G/F98H	350 nM	3 of 3	2 of 9
R90H/F95G/F98Q	250 nM	3 of 3	3 of 9
Y29I/F95C/F98Q	49 nM	3 of 3	3 of 9
G24R/F98R	1.3 µM	3 of 3	3 of 9